Screens as filed in PubChem BioAssay.
Shown are actives, neighbours in structure and some others; about 2.2% of the full set was active somewhere.
Nrf2 activator – Nrf2 pathway activation; AREc32 ARE-luciferase reporter (MCF7-derived line), luminescence, 24 h; AID 624171; actives 0.31% (n = 410,000); Potency, µM (titrated, usually from 46.1 µM), inactives show top-dose activation, actives largely listed as activators; further: potency means the concentration at half of the fitted maximal effect; % of control where 0% means no effect; nearly all actives have a fitted effect of over 65% in size
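Cells of the AREc32 ARE-luciferase line are plated in OPTI-MEM containing 5% FBS and left overnight at 37 deg C. Compounds are pinned in, incubation continues 24 hr, and firefly luciferase signal is then measured.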
miR-21 FLuc – miR-21 reporter, rising signal | 340,000 tested, under 10 active | AID 2288 | HeLa miR-21 FLuc reporter, luciferase, 48 h | Potency, µM (titrated, usually from 38.3 µM), for inactives: at the highest dose reporter change, positive = more light; active = well fitted rising curve with a large enough effect; inconclusive = small, poorly fitted or top-dose-only effect; inactive = no such curve, though single readings can be large or run the other way;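 further: % of control where 0% means no effect; miR-21 action dims this reporter so a rising signal means less miR-21 action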
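Compounds were titrated across several concentrations (up to approximately 40 uM) and incubated 48 hours with HeLa miR-21-FLuc reporter cells (miR-21 target sequence downstream of FLuc, endogenous miR-21). Readout was firefly luciferase luminescence after lytic detection reagent.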
GALK inh – galactokinase (human) inhibition | P51570 | Purified GALK, Kinase-Glo residual ATP luminescence | Potency, µM (titrated, usually from 57.5 µM), inactives show at the top dose activity change, negative = inhibition, most hits filed as inhibitors | actives 0.007% (n = 270,000) | AID 1868; further: potency means the concentration at half of the fitted maximal effect; on the % scale 0 is the no-effect control and ±100 the full control effect
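Kinase-Glo Plus luminescence measured ATP left after a 1 h room-temperature reaction. The reaction used 5 nM GALK, 100 uM galactose and 35 uM ATP at pH 8.0 (20 mM HEPES, 5 mM MgCl2, 60 mM NaCl, 1 mM DTT, 0.01% BSA).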
A549 viability – kills or reduces viability of A549 cells in Nrf2 counter-screen | A549 ARE-Fluc cells, CellTiter-Fluor viability, 18-24 h | Potency, µM (series often up to 46 µM), inactives show at the top dose activity change, negative = cytotoxicity, hits mostly inhibitors | actives 0.16% (n = 390,000); further: potency means the concentration at half of the fitted maximal effect; on the % scale 0 is the no-effect control and ±100 the full control effect
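A549 ARE-Fluc cells in 5% FBS OPTI-MEM, 5000 cells/well, rested 2 h then exposed to compounds in concentration-response for 18-24 h at 37 °C. Viability by CellTiter-Fluor fluorescence (Ex 405/Em 525) after 30 min; luciferase luminescence (BugLite, 15 min, RT) read afterwards.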
PI4K2A block – blocks human PI4K2A kinase activity. Q9BTU6. activity change, negative = inhibition, % at 76.9 µM. purified PI4K2A, ADP-Glo luminescence, 1 h; stronger effect = lower value. actives 0.13% (n = 420,000); in the data active means activity change below about -50%; inconclusive means mostly about -30% to -49%;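 further: -100% = wells without enzyme as full effect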
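PI4K2A activity was measured by ADP-Glo luminescence: enzyme (4 ug/mL stock) and phosphatidylinositol (1.2 mM stock) in Tris pH 7.5/MgCl2/EGTA/Triton X-100 buffer were reacted with ATP (300 microM stock) for one hour at ambient temperature.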
Nrf2 block – Nrf2 pathway inhibition. A549 ARE-Fluc reporter, luciferase luminescence, 18-24 h. Potency, µM (highest dose often 46 µM), without a hit: top-dose activity change, negative = inhibition, most hits filed as inhibitors. actives 2.1% (n = 360,000). AID 504444; further: potency means the concentration at half of the fitted maximal effect; on the % scale 0 is the no-effect control and ±100 the full control effect; nearly all actives have a fitted effect of over 60% in size
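Nrf2 function is reported as luminescence of an ARE-controlled luciferase in A549 cells. Compounds were tested at several concentrations, and a CellTiter-Fluor read on the same wells flagged cytotoxicity.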
The depositor's hits bear a star; ? = inconclusive; . = no result. Unless noted, the call rests on the fitted dose curve; in most records, active means well fitted curve in the direction sought with a large enough effect; inconclusive means small, poorly fitted or top-dose-only effect, or another doubt; inactive means no such curve, though single readings can be large; an effect the other way counts as inactive or inconclusive.

Fields – Nrf2 activator	miR-21 FLuc	GALK inh	A549 viability	PI4K2A block	Nrf2 block
#1 COc1ccc(NC(=O)CSc2nc(NS(=O)(=O)c3ccccc3)cc(=O)[nH]2)cc1
  0%	-8%	-2%	3%	-53*	-9%
#2 COc1ccc(C(=O)Cn2nnc(-c3ccccc3NC(=O)c3ccco3)n2)cc1
  1%	-3%	1%	?	-1	18µM*
#3 COc1ccc2ccccc2c1C=NNC(=O)c1cc(-c2ccc(C)cc2)n[nH]1
  .	.	.	.	0	.
#4 Cc1cc(F)ccc1S(=O)(=O)Nc1ccccc1C(=O)Nc1ccccc1N1CCOCC1
  0%	4%	3%	-2%	2	21µM*
#5 Cc1ccc(C)c(S(=O)(=O)Nc2ccccc2C(=O)Nc2ccccc2N2CCOCC2)c1
  0%	0%	-1%	-15%	8	23µM*
#6 COc1cc(-c2cc(C(=O)Nc3ccccc3N3CCOCC3)c3ccccc3n2)cc(OC)c1OC
  7%	26%	-1%	-16%	1	?
#7 O=C(Nc1ccccc1N1CCOCC1)c1ccccc1NS(=O)(=O)c1ccc(F)cc1
  0%	3%	-2%	3%	2	4%
#8 O=C(Nc1ccccc1N1CCOCC1)c1ccccc1NS(=O)(=O)c1ccc(F)c(F)c1
  0%	16%	-1%	-18%	-2	21µM*
#9 O=C(Nc1ccccc1N1CCOCC1)c1cc(-c2ccco2)nc2ccccc12
  6%	13%	1%	-20%	-17	18µM*
#10 C=CC[C@@H]1NN2C(=O)[C@@H](CCCC)[C@@H]3c4ccccc4C=NN3[C@@H]2c2ccccc21
  .	.	.	.	0	.
#11 CC(=O)Nc1ccn(C2COC(COC(=O)c3ccccc3)O2)c(=O)n1 (stereo not drawn)
  .	.	.	.	0	.
#12 COc1ccc(S[C@]2(C(=O)N3CCCC3)CC(=O)N(C(=O)/C=C/c3ccccc3)[C@@H]2c2ccc(OC)cc2)cc1
  .	.	.	.	2	.
#13 O=C(C1CCCN(S(=O)(=O)c2ccc([N+](=O)[O-])cc2)C1)N1CCN(Cc2ccccc2)CC1 (stereo not drawn)
  .	.	.	.	3	.
#14 CC(C)(C)c1ccc(-c2nnc3n2N=C(c2ccc(Cl)cc2)CS3)cc1
  .	.	.	.	2	.
#15 CCCCOCCCNC(=O)C[C@H]1C(=O)N(Cc2ccc(OC)cc2)C2=CCCCC[C@@]21C(=O)OC
  .	.	.	.	1	.
#16 CCN(CC)CCCNC(=O)c1nn(C)c2c1CS(=O)(=O)c1ccccc1-2
  0%	2%	.	-3%	3	18µM*
#17 COc1ccc(CCNC(=O)c2nn(C)c3c2CS(=O)(=O)c2ccccc2-3)c(OC)c1
  -1%	26%	4%	-13%	-1	23µM*
#18 CCOC(=O)[C@@]12CCCC=C1N(CCc1ccc(Cl)cc1)C(=O)[C@H]2CC(=O)NCc1cccc(C(F)(F)F)c1
  .	.	.	.	-3	.
#19 CN(Cc1cn(Cc2ccccc2)nn1)S(=O)(=O)c1ccccc1Br
  .	.	.	.	2	.
#20 Cc1cc2c(cc1C)N(C(=O)CCl)CCN2C(=O)CCl
  11µM*	.	.	-5%	8	?
#21 CC(C)c1ccc(NC(=O)CSc2n[nH]c(=O)n2Cc2ccco2)cc1
  5%	16%	-4%	-4%	1	10µM*
#22 O=C(CSc1n[nH]c(=O)n1Cc1ccco1)Nc1ccccc1
  -1%	1%	-3%	-2%	4	7%
#23 O=C(NCCc1nc2ccccc2[nH]1)c1cccc(Br)c1
  0%	-7%	-3%	3%	3	26µM*
#24 COc1ccc(Oc2c(Cl)cnn(-c3ccc(C(C)C)c(C)c3)c2=O)cc1
  .	.	.	.	-3	.
#25 COC(=O)[C@]12C[C@H](CC(=O)NCCc3ccccc3OC)C(=O)N(CCc3ccc(OC)c(OC)c3)C1=C[C@H](COCc1ccccc1)O[C@@H]2C
  .	.	.	.	-2	.
#26 CCOC1(c2ccccc2)CC1C(=O)N/N=C/c1cccc([N+](=O)[O-])c1 (stereo not drawn)
  9%	-5%	2%	-8%	8	18µM*

In the list so far, these contain bromine:
Fields – Nrf2 activator	miR-21 FLuc	GALK inh	A549 viability	PI4K2A block	Nrf2 block
#19 CN(Cc1cn(Cc2ccccc2)nn1)S(=O)(=O)c1ccccc1Br
  .	.	.	.	2	.
#23 O=C(NCCc1nc2ccccc2[nH]1)c1cccc(Br)c1
  0%	-7%	-3%	3%	3	26µM*

Printed as active in Nrf2 activator, of those listed so far:
no. | compound | Nrf2 activator | miR-21 FLuc | GALK inh | PI4K2A block
20 | Cc1cc2c(cc1C)N(C(=O)CCl)CCN2C(=O)CCl | 11µM* | . | . | 8
